Experimental data from US8049006B2, “7-membered ring compound and method of production and pharmaceutical application thereof” (Daiichi Sankyo Company, Limited, priority 2006, dated 2011).
Where two headings read alike, the source gives them in different places.

Test system: C3H/HeN mice
Conditions: 10 mg/kg orally once a day, 24 hours after DNFB application at fifth week, female C3H/HeN mice

## CC[C@@H](NC(=O)N1CC(=O)NC[C@H](Cc2cc(Cl)ccc2OC)C1=O)c1ccc(C(=O)O)c(N)c1 [Compound 179B, 2-amino-4-[(1R)-1-({[(6S)-6-(5-chloro-2-methoxybenzyl)-3,7-dioxo-1,4-diazepan-1-yl]carbonyl}amino)propyl]benzoic Acid Monoacetic Acid Solvate]
Listed as compound 179B
  inhibition rate of the skin reaction: 32.8%

## CC[C@@H](NC(=O)N1CC(=O)NC[C@@H](Cc2cc(Cl)ccc2OC)C1=O)c1ccc(C(=O)O)c(N)c1 [2-amino-4-[(1R)-1-({[(6R)-6-(5-chloro-2-methoxybenzyl)-3,7-dioxo-1,4-diazepan-1-yl]carbonyl}amino)propyl]benzoic Acid]
  inhibition rate of the skin reaction: 20.0%

## CC[C@@H](NC(=O)N1CC(=O)NC[C@H](Cc2cc(Cl)ccc2OC)C1=O)c1ccc(C(=O)O)c(N)c1 [Compound 150, 2-amino-4-[(1R)-1-({[(6S)-6-(5-chloro-2-methoxybenzyl)-3,7-dioxo-1,4-diazepan-1-yl]carbonyl}amino)propyl]benzoic Acid]
Listed as compound 150
  inhibition rate of the skin reaction: 29.9%
